The experiment addresses human GLP-1R (Homo sapiens, UniProt P43220). Kind of experiment: GLP-1R Cell Assay 1: cAMP Hunter CHO-K1 GLP1R Gs cell line, HitHunter cAMP assay. The settings on record: read-out: GLP-1R Cell Assay 1 EC50; Table 2; cAMP Hunter CHO-K1 GLP1R Gs cells; percent activity normalized to Exendin-4. The procedure: GLP-1R mediated agonist activity was determined using the cAMP Hunter CHO-K1 GLP1R Gs cell line (DiscoverX, cat# 95-0062C2), a stable CHO-K1 derived cell lines overexpressing naturally Gs coupled wild-type human GLP-1R (accession number: NM_002062.3). GLP-1R agonism in this cell line was detected by measuring cellular cAMP levels using the HitHunter cAMP assay kit (cat# 90-0075SM2), a homogenous, gain-of-signal competitive immune assay based on Enzyme Fragment Complementation (EFC) technology. In this system cellular cAMP competes with exogenous labeled cAMP (ED-cAMP) for binding to an anti-cAMP antibody. […] The luminescent signal is directly proportional to the amount of cellular cAMP.
For compound testing, cells were seeded in a total volume of 20 μL in white walled, 384-well microplates and incubated at 37° C. prior to compound testing. Prior to compound addition, cell culture media was removed by aspiration and replaced with 15 pt reagent buffer (2:1 HBSS/10 mM HEPES: cAMP XS+Ab reagent). […] Microplates were read on a PerkinElmer Envision instrument. Compound activity was analyzed using CBIS data analysis suite (ChemInnovation). Percent activity was calculated based on duplicate assay runs and normalized to the positive control Exendin-4, a GLP-1R peptide agonist, using the following formula: […]
For orientation: Cyclic AMP is a second messenger, typically raised through Gs and lowered through Gi signalling.

Sequences of proteins named here, by UniProt entry; tags and fusion partners are left off. Residues count along the entry.
UniProt P43220, 24-463 limits assumed: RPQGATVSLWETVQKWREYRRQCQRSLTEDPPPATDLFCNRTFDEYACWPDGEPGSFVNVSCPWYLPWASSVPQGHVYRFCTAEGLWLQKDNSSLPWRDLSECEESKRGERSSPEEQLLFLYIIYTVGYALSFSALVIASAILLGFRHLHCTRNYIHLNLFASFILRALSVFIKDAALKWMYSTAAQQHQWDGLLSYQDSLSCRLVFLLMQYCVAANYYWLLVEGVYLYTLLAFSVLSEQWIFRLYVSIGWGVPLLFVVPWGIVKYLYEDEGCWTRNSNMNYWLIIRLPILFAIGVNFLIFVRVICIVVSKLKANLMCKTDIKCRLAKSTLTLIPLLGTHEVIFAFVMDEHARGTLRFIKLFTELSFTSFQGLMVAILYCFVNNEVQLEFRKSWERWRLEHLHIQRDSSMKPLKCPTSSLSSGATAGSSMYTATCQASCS

pEC50: −log10 of the molar value.

A word on the pEC50: it is −log10 of the EC50, conventionally taken in molar units. As for `O=C(O)c1ccc2nc(CN3CCC4(c5cccc(OCc6ccc(Cl)cc6F)n5)CC4C3)n(C[C@@H]3CCO3)c2c1` (stereo partly shown), the negative-log EC50 (pEC50) is 9.59.

The values are drawn from patent publication US20220089578A1, “COMPOUNDS AS GLP-1R AGONISTS” (Terns Pharmaceuticals, Inc., priority 2020, published 2022).
